Reference: patent US9968633B2, “Stimuli responsive compositions for iron chelation” (WISCONSIN ALUMNI RESEARCH FOUNDATION, priority 2014, dated 2018)

Tested on: iron-overloaded J774A.1 cells
Protocol: Mouse macrophage/monocyte cell line, J774A.1, was purchased from American Type Culture Collection (ATCC). Cells were seeded in 96-well plates at a density of 3,000 cells/well, cultured at 37° C., 5% CO2 with DMEM complete medium (supplemented with 10% (v/v) heat-inactivated FBS, 100 I.U./mL penicillin and 100 μg/mL streptomycin), and allowed to settle for 24 h. Cells were then treated with DFO or oxNG-DFO at equivalent DFO concentrations of 1 mM prepared by 1:3 serial dilutions.
Cell viability was measured with the metabolism-based resazurin assay. Briefly, the substrate resazurin was dissolved in cell culture medium at a concentration of 44 μM, added to each well (100 μl) and incubated at 37° C. for 4 h. The fluorescence was measured with excitation at 560 nm and emission at 590 nm, on a SpectraMax Gemini EM microplate reader. Readings from the wells without cells were used as Eblank, and the readings from control cells without treatment (Econtrol) represented 100% cell viability. The viability of treated cells at different concentrations can be calculated by the following equation: […]
Similarly, cytotoxicity was also evaluated in iron-overloaded J774A.1 cells as described above. […]

Ferric ammonium citrate [FAC]
Cells viable after FAC incubation: > 80%
